# Assay results as given in PubChem BioAssay (NCATS).
# Sequences of proteins named here, by UniProt entry; tags and fusion partners are left off.
# UniProt O15297, whole entry: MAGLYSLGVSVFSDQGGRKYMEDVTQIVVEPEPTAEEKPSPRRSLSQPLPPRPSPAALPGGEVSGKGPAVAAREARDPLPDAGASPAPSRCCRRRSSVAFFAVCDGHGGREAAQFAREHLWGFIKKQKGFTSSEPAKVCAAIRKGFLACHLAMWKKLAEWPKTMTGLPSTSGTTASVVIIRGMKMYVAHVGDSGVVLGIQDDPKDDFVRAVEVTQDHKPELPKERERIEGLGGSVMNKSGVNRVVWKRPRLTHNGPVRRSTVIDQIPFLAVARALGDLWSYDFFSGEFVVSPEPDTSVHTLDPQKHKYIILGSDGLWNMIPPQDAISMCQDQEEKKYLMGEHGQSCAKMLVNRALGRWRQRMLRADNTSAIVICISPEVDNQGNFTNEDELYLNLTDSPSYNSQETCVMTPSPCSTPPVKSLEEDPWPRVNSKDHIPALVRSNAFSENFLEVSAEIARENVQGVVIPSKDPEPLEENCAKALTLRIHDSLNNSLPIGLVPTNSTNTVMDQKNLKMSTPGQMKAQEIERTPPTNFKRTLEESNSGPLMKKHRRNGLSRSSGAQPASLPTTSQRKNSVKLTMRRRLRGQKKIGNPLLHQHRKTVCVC
# UniProt Q99828, whole entry: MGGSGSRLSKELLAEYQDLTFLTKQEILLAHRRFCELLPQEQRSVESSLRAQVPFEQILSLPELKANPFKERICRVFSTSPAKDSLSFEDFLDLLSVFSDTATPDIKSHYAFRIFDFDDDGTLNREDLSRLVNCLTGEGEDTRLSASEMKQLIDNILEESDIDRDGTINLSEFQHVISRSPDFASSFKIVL
# UniProt P10635, whole entry: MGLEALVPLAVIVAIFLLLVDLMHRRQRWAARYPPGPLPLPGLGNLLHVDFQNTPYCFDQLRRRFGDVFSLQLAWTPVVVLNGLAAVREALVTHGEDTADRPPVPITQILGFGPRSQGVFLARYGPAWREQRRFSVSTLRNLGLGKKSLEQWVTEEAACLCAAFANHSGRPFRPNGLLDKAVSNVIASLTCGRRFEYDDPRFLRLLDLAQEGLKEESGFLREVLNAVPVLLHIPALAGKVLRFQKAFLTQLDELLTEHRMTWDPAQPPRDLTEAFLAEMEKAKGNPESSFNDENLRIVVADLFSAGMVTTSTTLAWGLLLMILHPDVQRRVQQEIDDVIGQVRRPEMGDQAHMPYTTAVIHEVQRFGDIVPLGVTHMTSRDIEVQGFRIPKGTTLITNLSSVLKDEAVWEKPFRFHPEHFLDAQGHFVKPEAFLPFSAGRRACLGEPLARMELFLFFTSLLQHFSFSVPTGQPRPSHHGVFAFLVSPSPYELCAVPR
# UniProt P08684, whole entry: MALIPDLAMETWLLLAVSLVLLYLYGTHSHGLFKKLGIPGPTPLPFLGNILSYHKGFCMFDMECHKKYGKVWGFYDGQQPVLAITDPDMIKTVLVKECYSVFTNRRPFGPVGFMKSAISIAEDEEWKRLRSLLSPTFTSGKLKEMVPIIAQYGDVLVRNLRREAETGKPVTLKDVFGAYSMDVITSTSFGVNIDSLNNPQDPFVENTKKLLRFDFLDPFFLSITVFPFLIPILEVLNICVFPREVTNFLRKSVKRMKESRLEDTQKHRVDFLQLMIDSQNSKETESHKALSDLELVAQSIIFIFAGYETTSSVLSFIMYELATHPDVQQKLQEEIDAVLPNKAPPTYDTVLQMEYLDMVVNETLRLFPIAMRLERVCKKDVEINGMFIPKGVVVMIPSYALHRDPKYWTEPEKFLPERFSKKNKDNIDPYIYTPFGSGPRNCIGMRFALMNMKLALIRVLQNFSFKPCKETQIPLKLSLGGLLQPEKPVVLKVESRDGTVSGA
# Several values for one entry are separate records, joined by “and”; a condition that tells them apart may be missing. Equal entries are not always repeated. Only a part is listed here, and it is no random draw. Records with an inconclusive call do not appear. Activity calls are given as the source filed them. Unless noted, calls come from the whole dose curve; as a rule, active = well fitted curve in the direction sought with a large enough effect; inconclusive = small, poorly fitted or top-dose-only effect, or another doubt; inactive = no such curve, though single readings can be large; an effect the other way counts as inactive or inconclusive.
# Key:
# [1] = qHTS of pediatric cancer cell lines to identify multiple opportunities for drug repurposing: Primary screen for Rh41 cells (AID 1347108); conditions: Rh41 rhabdomyosarcoma viability, CellTiter-Glo luminescence, 48 h; at 46 µM (top of the series) unless noted;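 note: luminescence drop marks cytotoxic hits; nearly all actives have a fitted effect of over 70% in size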
# Outline: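 Quantitative HTS format: each compound titrated (MIPE 11 points from 0.78 nM, NPC 8 points from 0.59 nM) onto cells plated 5 hours earlier. After 48 h at 37 degrees C, CellTiter-Glo luminescence was recorded.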
# [2] = qHTS of pediatric cancer cell lines to identify multiple opportunities for drug repurposing: Confirmatory screen for SK-N-MC cells (AID 1347111); conditions: SK-N-MC cell viability;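 note: potency is the fitted concentration of half-maximal effect; cells exposed to compound for 48 h before the readout; nearly all actives have a fitted effect of over 70% in size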
# Outline: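 Metabolically active cells were quantified by ATP-dependent luminescence (CellTiter-Glo, 15 min at room temperature) following 48 h treatment. Cells had been plated at 500-1,000 per well and settled for 5 h beforehand.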
# [3] = qHTS of pediatric cancer cell lines to identify multiple opportunities for drug repurposing: Confirmatory screen for SJ-GBM2 cells (AID 1347116); conditions: SJ-GBM2 glioblastoma cells, viability; at 45.9 µM (top of the series);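 note: plate controls were DMSO for no effect and bortezomib for full effect; nearly all actives have a fitted effect of over 60% in size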
# Outline: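 Viability measured as metabolically active cells via CellTiter-Glo luminescence following 48 hours of compound exposure, 11-point dilutions in confirmatory testing. 500-1,000 cells/well plated 5 hours before dosing; controls were DMSO and 2.3 µM bortezomib.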
# [4] = qHTS of pediatric cancer cell lines to identify multiple opportunities for drug repurposing: Confirmatory screen for control Hh wild type fibroblast cells (AID 1347121); conditions: viability qHTS; at 45.9 µM (top of the series);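 note: plate controls were DMSO for no effect and bortezomib for full effect; nearly all actives have a fitted effect of over 70% in size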
# Outline: (§1)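 Cells (500-1,000/well) in growth media were settled 5 h at 37 degrees C, then given compounds for 48 h. Viability was read as CellTiter-Glo luminescence. Primary runs used MIPE at 11 points (0.78 nM-46 µM) and NPC at 8 points (0.59 nM-46 µM); follow-ups used 11 points.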
# [5] = qHTS of pediatric cancer cell lines to identify multiple opportunities for drug repurposing: Confirmatory screen for U-2 OS cells (AID 1347122); conditions: U-2 OS osteosarcoma cell viability; at 45.9 µM (top of the series);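 note: plate controls were DMSO for no effect and bortezomib for full effect; nearly all actives have a fitted effect of over 65% in size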
# Outline: as §1
# [6] = qHTS of pediatric cancer cell lines to identify multiple opportunities for drug repurposing: Confirmatory screen for RD cells (AID 1347124); conditions: RD rhabdomyosarcoma cell viability; at 45.9 µM (top of the series);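 note: cells exposed to compound for 48 h before viability readout; % is set by controls: 0 for no effect and ±100 for the full control effect; nearly all actives have a fitted effect of over 65% in size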
# Outline: as §1
# [7] = qHTS of pediatric cancer cell lines to identify multiple opportunities for drug repurposing: Confirmatory screen for Rh18 cells (AID 1347125); conditions: Rh18 rhabdomyosarcoma cells, viability; at 45.9 µM (top of the series); note: % is set by controls: 0 for no effect and ±100 for the full control effect; nearly all actives have a fitted effect of over 55% in size
# Outline: as §1
# [8] = test system: Zika virus NS2B-NS3 protease; test: Primary screen GU AMC qHTS for Zika virus inhibitors (AID 1347154); conditions: Zika NS2B-NS3 unlinked protease, AMC fluorogenic substrate; at 54.1 µM (top of the series) unless noted;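 note: 0% = no-inhibitor control and -100% = no-enzyme control; nearly all actives have a fitted effect of over 70% in size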
# Outline: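 Unlinked Zika NS2B hydrophilic domain/NS3 protease domain noncovalent complex (25 nM final) in 10 mM Tris-HCl pH 8.0, 0.01% Tween 20, with AMC peptide substrate. Fluorescence (ex 340, em 450 nm) change over 15 min, room temperature; percent inhibition fitted to 4-parameter Hill equation.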
# [9] = qHTS to identify inhibitors of the type 1 interferon - major histocompatibility complex class I in skeletal muscle: primary screen against the NCATS Pharmaceutical Collection (AID 1347407); conditions: human skeletal muscle cells, IFN-b-induced MHC-I HiBiT luminescence, 24 h; at 92.2 µM (top of the series) unless noted;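 note: luminescence of HiBiT knocked into endogenous HLA-B as interferon-induced MHC class I level; % is set by controls: 0 for no effect and ±100 for the full control effect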
# Outline: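 Immortalized human myoblasts (C25cl48) with HiBiT knocked into endogenous HLA-B*08:01 were stimulated with 4.0 ng/ml IFN-beta and treated with compounds ([…] top 46 uM) for 24 hrs at 37 C. HiBiT lytic luminescence read.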
# [10] = target: Protein phosphatase 1D (Homo sapiens) (UniProt O15297); test: RapidFire Mass Spectrometry qHTS Assay for Modulators of WT P53-Induced Phosphatase 1 (WIP1) (AID 1347424); conditions: WIP1 dephosphorylation of phosphopeptide, RapidFire MS; at 128 µM (top of the series) unless noted;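 note: amount of dephosphorylated VEPPL-S-QETFS peptide product formed by WIP1; plate controls were DMSO wells for no effect and GSK830371 inhibitor control at 10 µM for full effect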
# Outline: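 Mass-spectrometric measurement of dephosphorylated peptide after a 5 min room-temperature reaction of 10 nM WIP1 with 2 uM phosphopeptide, following 1 h compound preincubation in 30 mM MgCl2 buffer.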
# [11] = target: Protein phosphatase 1D (Homo sapiens) (UniProt O15297); test: Rhodamine-PBP qHTS Assay for Modulators of WT P53-Induced Phosphatase 1 (WIP1) (AID 1347425); conditions: recombinant WIP1, Rhodamine-PBP phosphate fluorescence, real-time; at 116 µM (top of the series) unless noted; note: % of control where 0% means no effect
# Outline: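 Read-out: Rhodamine-PBP fluorescence (ex 525/em 598 nm) for released Pi, read each minute for 11 min after adding 10 uM VEPPL-pS-QETFS; signal taken as f1 minus pre-substrate f0. Enzyme 5 nM WIP1 with 1 hr room-temperature compound preincubation.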
# [12] = Primary qHTS for Huh7 cytotoxicity: counterscreen for inhibitors of MERS-S pseudotyped particle cell entry (AID 1479147; calls by dose curve; note: % is set by controls: 0 for no effect and ±100 for the full control effect); conditions: cell viability read-out; at 57.1 µM (top of the series)
# [13] = Primary qHTS for inhibitors of MERS-S pseudo-typed particle cell entry (AID 1479149; calls by dose curve; note: nearly all actives have a fitted effect of over 60% in size); conditions: MERS-S pseudotyped particle entry, luciferase; at 57.1 µM (top of the series)
# [14] = Primary qHTS for Vero E6 cytotoxicity: counterscreen for inhibitors of SARS-S pseudo-typed particle cell entry (AID 1479150; calls by dose curve; note: % is set by controls: 0 for no effect and ±100 for the full control effect); conditions: cell viability; at 57.1 µM (top of the series)
# [15] = Primary qHTS for inhibitors of La Crosse Virus (LACV) - induced cell death in SH-SY5Y cells (AID 1508616); conditions: SH-SY5Y LACV cytopathicity rescue, ATP luminescence, 6 d; at 8.54 µM (top of the series) unless noted;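 note: top concentration of the series differs between compounds; 0% = infected DMSO wells and 100% = uninfected DMSO wells; higher means more rescue of cells from virus-induced death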
# Outline: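 Screening measures cell viability in LACV-infected SH-SY5Y cultures. Compound was added before virus (0.01 MOI), and ATP was detected by luminescence 6 days later.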
# [16] = target: Calcium and integrin-binding protein 1 (Homo sapiens) (UniProt Q99828); test: Primary qHTS for Identification of Calcium Integrin Binding Protein 1 (CIB1) Competitor (AID 1508620); conditions: CIB1-GST / FITC-alphaIIb peptide fluorescence polarization;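 note: GST tagged CIB1 binding a fluorescein labelled alphaIIb integrin peptide tracer; top concentration of the series differs between compounds; % is set by controls: 0 for no effect and ±100 for the full control effect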
# Outline: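 Fluorescence polarization competition: CIB1-GST (1 uM final) preincubated with compound 15 min at room temperature, then FITC-labeled alphaIIb peptide (100 nM final) added for another 15 min. Polarization read at Ex 480/Em 540.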
# [17] = Primary qHTS for small molecule stabilizers of the endoplasmic reticulum resident proteome: Secreted ER Calcium Modulated Protein (SERCaMP) assay (AID 1508630); conditions: SH-SY5Y GLuc-SERCaMP (Gaussia luciferase released on ER calcium loss) secretion, thapsigargin, luminescence; at 38.4 µM (top of the series); note: % is set by controls: 0 for no effect and ±100 for the full control effect
# Outline: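 The SH-SY5Y reporter protocol was run at 3 concentrations up to 38.3 uM (primary) or 11 concentrations (follow-up): 16 h compound, 100 nM thapsigargin for 4 h, then extracellular luciferase luminescence.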
# [18] = target: Cytochrome P450 2D6 (Homo sapiens) (UniProt P10635); test: Cytochrome P450 family 2 subfamily D member 6 (CYP2D6) small molecule antagonists: luciferase biochemical (cell-free) qHTS assay (AID 1645840; active = well fitted curve in the direction sought with a large enough effect in the repeat runs; an effect the other way counts as inactive or inconclusive; note: nearly all actives have a fitted effect of over 55% in size; note: potency is the fitted concentration of half-maximal effect)
# Outline: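 P450-Glo CYP2D6 system: proluciferin substrate converted by enzyme to luciferin, read by luminescence proportional to activity. Enzyme-substrate mix with compound 10 min at room temperature, then NADPH regeneration 1 h before detection reagent.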
# [19] = target: Cytochrome P450 3A4 (Homo sapiens) (UniProt P08684); test: Cytochrome P450 family 3 subfamily A member 4 (CYP3A4) small molecule antagonists: luciferase qHTS assay (AID 1645841; active = well fitted curve in the direction sought with a large enough effect in the repeat runs; an effect the other way counts as inactive or inconclusive; note: nearly all actives have a fitted effect of over 45% in size; note: potency is the fitted concentration of half-maximal effect)
# [20] = A High-Content qHTS Against Drug Library for the Identification of Small Molecules that Inhibit DYT1 Early Onset Primary Dystonia-Associated Cell Pathology (AID 1645839; calls by dose curve); conditions: HEK293 Flp-In EGFP-delE TorsinA, punctate imaging, 48 h; at 91.7 µM (top of the series)
# Outline: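 Induced EGFP-delE TorsinA cells are imaged after 48 h of compound treatment. Punctate fusion-protein distribution gives the %pathology value, while nuclei counts flag toxicity. Wild-type EGFP-hTOR1A cells define the normal pattern.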
structure (smiles),measurement,setting,value
CN(CCCl)CCCl,"activity change, negative = cytotoxic",[1],inactive: 5.25% and inactive: 11.3%
same,Potency,[2],active: 14700 nM
same,"activity change, negative = cytotoxic",[3],inactive: -17.3%
same,"activity, negative = cytotoxic",[4],inactive: 6.54%
same,"activity change, negative = cytotoxicity",[5],inactive: -3.36%
same,"activity change, negative = cytotoxic",[6],inactive: 0.314%
same,"activity change, negative = cytotoxic",[7],inactive: -0.823%
same,"activity change, negative = inhibition",[8],inactive: -1.37% and inactive: 6.23%
same,"activity change, negative = inhibition",[9],inactive: 20% [at 45.9 µM]
same,"activity change, negative = inhibition",[10],inactive: 47.8% [at 63 µM]
same,"activity change, negative = inhibition",[11],inactive: 7.29% [at 57.5 µM]
same,"activity change, negative = cytotoxicity",[12],inactive: -4.36%
same,outcome,[13],inactive
same,"activity change, negative = cytotoxicity",[14],inactive: -8.67%
same,activity change,[15],inactive: -17.3% [at 4.29 µM]
same,"activity change, negative = inhibition",[16]; at 57.7 µM (top of the series),inactive: -4.85%
same,"activity change, negative = inhibition",[16]; at 114 µM (top of the series),inactive: -0.224%
same,"activity change, negative = inhibition",[17],inactive: 47% and inactive: 154%
same,Potency,[18],inactive
same,Potency,[19],inactive
CCC(=O)N(c1ccccc1)C1(COC)CCN(CCc2cccs2)CC1,"activity change, negative = inhibition",[8],inactive: -0.449% [at 104 µM]
same,"activity change, negative = inhibition",[9],inactive: -10.6%
same,"activity change, negative = inhibition",[10],inactive: 38.2%
same,"activity change, negative = inhibition",[11],inactive: 8.94%
same,activity change,[15],inactive: -0.746%
same,"activity change, negative = inhibition",[16]; at 228 µM (top of the series),inactive: 0.826%
same,"% pathology change, negative = correction",[20],inactive: -18.1%
same,Potency,[18],active: 1420 nM
same,Potency,[19],active: 1590 nM
CCC(=O)N(c1ccccc1)C1(COC)CCN(CCn2nnn(CC)c2=O)CC1,"activity change, negative = cytotoxic",[1],inactive: -16.5% [at 92.7 µM]
same,"activity change, negative = inhibition",[8],inactive: 1.07% [at 104 µM]
same,"activity change, negative = inhibition",[9],inactive: -6.3%
same,"activity change, negative = inhibition",[10],inactive: -8.28%
same,"activity change, negative = inhibition",[11],inactive: -25.6%
same,activity change,[15],inactive: -6.17%
same,"activity change, negative = inhibition",[16]; at 228 µM (top of the series),inactive: 1.89%
same,"% pathology change, negative = correction",[20],inactive: 7.51%
same,Potency,[18],inactive
same,Potency,[19],active: 621 nM
